# Reference: PubChem BioAssay AID651965 (National Center for Advancing Translational Sciences (NCATS), 2013)
# Protein sequences, listed by entry. Tags and fused reporters are not part of them. Lines headed by an entry give the natural chain unless they say otherwise; changes in a name come on top.
# UniProt P80244: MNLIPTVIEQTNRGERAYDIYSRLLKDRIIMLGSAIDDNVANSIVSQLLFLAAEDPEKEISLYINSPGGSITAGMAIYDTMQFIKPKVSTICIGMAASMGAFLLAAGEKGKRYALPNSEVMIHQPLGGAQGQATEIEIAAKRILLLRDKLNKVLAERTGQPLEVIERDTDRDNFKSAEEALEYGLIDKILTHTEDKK
# Screen size: about 340,000 compounds; about 6,400 (1.9%) were called active. The source calls these results inconclusive, neither active nor inactive. The call rests on the fitted dose curve; in most records, active means well fitted falling curve with a large enough effect; inconclusive means small, poorly fitted or top-dose-only effect; inactive means no such curve, though single readings can be large or run the other way.
# Target: ATP-dependent Clp protease proteolytic subunit (Bacillus subtilis (strain 168)) (UniProt P80244)
# Assay: qHTS Assay for Activators of ClpP; further: the source files actives as falling curves though it sought activators and does not explain the sign; nearly all actives have a fitted effect of over 65% in size
# Conditions: purified B. subtilis ClpP, FRET peptide cleavage, 20 min
# Potency means the concentration at half of the fitted maximal effect.
row,SMILES,Potency
1,CC(C)c1ccc(OP(=O)(Nc2ccccn2)Oc2ccccc2F)cc1 (configuration not stated),inconclusive: 31.6 µM
2,O=C(NC(Sc1ccncn1)C(Cl)(Cl)Cl)c1ccccc1 (configuration not stated),inconclusive: 3.55 µM
